Laboratory results as given in US7183251B1, “hCG therapy for the treatment of breast cancer” (Fox Chase Cancer Center, priority 1998, dated 2007).
Several values for one entry are separate records, joined by “and”; a condition that tells them apart may be missing. Identical values can stand only once.

Experiments:
CG-5 cells = assay: CG-5 cell growth experiments (cell counts with hemocytometer); assay type: cell-based, human; conditions: for inhibition of cell proliferation with respect to control: then 10^-7 M TAM
Protocol: Preliminary in vitro experiments were carried out on CG-5 cells, a variant of the MCF-7 cell line (Natoli C. et al., 1983, Breast Cancer Res. Treat. 3:23–32) characterized by a high degree of estrogen responsiveness and an appreciable content of estrogen, androgen, glucocorticoid and progesterone receptors.
Cells were routinely cultured in Dulbecco's modified Eagle's medium (DMEM) supplemented with 10% fetal calf serum (FCS) and antibiotics. For cell growth experiments, cells were plated out at the density of 50,000 cells/ml in the medium described above. Twenty-four hours later, the medium was replaced with fresh medium containing 5% charcoal-treated FCS(CH-FCS) plus a fixed concentration (10^−7 M) of Tamoxifen (TAM) and various concentrations (from 10 to 10,000 IU/ml) of hCG. Medium was renewed every 3 days. In the experiments concerning the effect of hCG and TAM sequentially added to CG-5 cells, cells were plated out at 50,000 cells/ml, as described above, and 24 hours later DMEM was changed with fresh medium containing 10 to 10,000 IU/ml of hCG. […] After 1 week of exposure to hCG, CG-5 cells were plated in medium supplemented which 10% FCS and antibiotics, and 24 hours later DMEM was replaced by fresh medium supplemented with 5% CE-FCS and a fixed concentration of TAM (10^−7 M). Medium was renewed every 3 days. In all experiments performed cells were counted, after 3 to 6 days, with the use of an hemocytometer.

[1] = system: normal and neoplastic human breast epithelial cells; conditions: cited from earlier work
metastatic breast cancer = assay: Open-label study of r-hCG in metastatic breast cancer in postmenopausal women; assay type: in vivo, human; conditions: postmenopausal women with metastatic disease, Example 2
Text: The primary objective of this study was to assess the effect of r-hCG on the tumor response rate of bi-dimensionally measurable or palpable lesions. The secondary objectives were: i.) to assess the effect of r-hCG treatment on symptoms caused by metastatic breast tumor lesions, ii.) to determine whether r-hCG exerts any adverse systemic effects, iii.) to measure time to tumor progression and, iv.) to determine the effects of r-hCG on endocrinology parameters and tumor markers.
Thirteen postmenopausal women diagnosed with biopsy-proven breast cancer and clinical evidence of metastatic disease were entered in the study. Patients are treated with 500 mcg of r-hCG three times per week for at least two months. Tumor assessment and measurement of target indicator lesions are performed every two months by X-ray, CT scan, MRI or physical examination. After 60 days of treatment, a re-evaluation of metastatic lesions is performed using the same diagnostic procedure(s). In the event of disease progression (i.e., appearance of new tumor or growth of indicator lesions by at least 25% in square dimensions) study treatment is discontinued, otherwise, treatment is continued, with patient re-evaluations every eight weeks, until progressive disease is noted.

[2] = system: carcinogen-induced rat mammary tumors; conditions: cited from earlier work
[3] = system: DMBA-induced rat mammary carcinomas; assay: Effect on early tumor development after DMBA (Regimens 4-6); assay type: in vivo; conditions: 100 IU/day ip 40 days starting 21 days after DMBA, Regimens 5, 6
Protocol: (§1) Evaluation of the therapeutic efficiency of r-hCG on mammary cancer. The tumoristatic and tumoricidal efficacy of r-hCG and u-hCG on early and advanced mammary cancer was tested in intact virgin rats that had received a single dose of DMBA when they were 45 days old (FIG. 4, Regimens 4–9). The effect on early tumor development was tested under Regimens 4, 5, and 6. It was evaluated by initiating r-hCG treatment 20 days after DMBA administration, when early lesions, such as intraductal proliferations (IDPs) and carcinomas in situ (CIS) are already present, but there are no palpable tumors as yet. The effect on advanced tumor development was evaluated by starting the hormonal treatment 60 days after DMBA administration, or when palpable tumors had reached at least 1 cm in maximal diameter (Regimens 7, 8, and 9). In both groups the hormone was administered for 40 days and final tumorigenic response was evaluated 20 weeks post-DMBA administration. The effect of the hormonal treatment on the rate of tumor growth, with special emphasis on tumor regression, absence of skin ulceration, and final tumor size and necrosis were evaluated at the time of assessment of the final tumorigenic response.
(§2) For Regimens 4–9, 300 animals were inoculated with a single ig dose of 8 mg DMBA/100 g bw when they were 45 days old. Tumorigenic response was evaluated by palpation of the right and left mammary cervical, thoracic, abdominal and inguinal areas and from ventral to dorsolateral extensions of the glands. All tumors were sequentially numbered in the order they had appeared, their location was recorded, and the rate of tumor growth was determined by measurement of tumor size with a Vernier caliper. All changes in the health status of the animals, rapid tumor growth or skin ulceration were recorded. Those animals in which the tumors were excessively large or became ulcerated were euthanized, irrespectively of the stage of the hormonal treatment, in compliance with IACUC regulations. Those animals that were euthanized before initiation or before the completion of the hormonal treatments were deleted from the statistical analysis of the final tumorigenic response.
Regimens 4–6 were designed for testing the effect of the hormonal treatments on early tumor development. Twenty one days after DMBA administration those animals allocated to Regimen 4 started receiving a daily ip injection of 0.5 ml placebo for 40 days. Under Regimens 5 and 6 the same number of animals received for 40 days 100 IU/day of r-hCG or u-hCG, respectively. All the animals were palpated biweekly for detection of tumor development and determination of tumor growth rate. Final tumorigenic response was evaluated 20 weeks after administration of DMBA.
(§3) Evaluation of Final Tumorigenic Response. […] The tumors were rapidly dissected, measured in three dimensions, and serially sliced. Adjacent slices were:
(§4) The following criteria were utilized for evaluating the final tumorigenic response:
(§5) 1. Rate of tumor growth, based on sequential measurement of the two largest diameters of tumors in live animals utilizing a Vernier Caliper and expressing the results in mm.
(§6) 2. Final tumor size, based on measurement of the length, width and height of dissected tumors with a Vernier Caliper. Results were expressed in mm. A progressively smaller tumor size in successive measurements was indicative of tumor regression. Palpable tumors that had disappeared at the time of dissection were considered to be 100% regressed. The mammary tissue in which the tumor had been originally identified was fixed in 10% NBF for histopathological analysis.
(§7) 5. Statistical Analysis. The significance of the differences in tumorigenic response among the groups was determined by Chi Square analysis and Student's T test.

breast cancer = conditions: women treated for infertility or weight loss; cited from earlier work
[4] = system: neoplastic cell lines from various organs or systems; conditions: urinary hCG from various sources; cited from earlier work
[5] = system: DMBA-induced rat mammary carcinomas; assay: Effect on advanced (palpable) tumor development after DMBA (Regimens 7-9); assay type: in vivo
Protocol: as §1, §2
Regimens 7–9 tested the effects of r-hCG and u-hCG on late (palpable) tumor development: Sixty days after DMBA inoculation, when the rats were 105 days old, animals allocated to Regimen 7 started receiving a daily ip injection of 100 IU/day r-hCG for 40 days. Under Regimens 8 and 9 the same number of animals received for 40 days 100 IU/day of u-hCG or 0.5 ml placebo, respectively. Tumorigenic response was evaluated by biweekly palpation. All tumors were sequentially numbered, their location was recorded, and the rate of tumor growth was determined by measurement of tumor size with a Vernier caliper. Final tumorigenic response was evaluated 20 weeks after administration of DMBA.
as §3, §4, §5, §6, §7

[6] = system: DMBA-induced rat mammary carcinomas; assay: Prevention of DMBA-induced rat mammary carcinomas (Regimens 1-3); assay type: in vivo
Protocol: Evaluation of the efficacy of r-hCG in the prevention of mammary cancer: Regimens 1–9 utilized in the experiments described below are shown schematically in FIG. 4. The animals utilized in Regimens 1–9 consisted of 450 intact virgin Sprague-Dawley rats that were purchased from Taconic Farms (New York, N.Y.).
The potential of hCG to inhibit the initiation of DMBA-induced rat mammary carcinomas was evaluated in intact virgin rats treated with placebo (Regimen 1); 100 IU r-hCG/day (Regimen 2), or 100 IU u-hCG/day (Regimen 3). All animals were injected daily for 21 days, starting when the rats were 45 days old. The carcinogen DMBA was administered as a single intragastric dose (8 mg/100 g body weight) given 21 days after the last injection of placebo or hormone. Under these protocols the first effect evaluated was the appearance of tumors detected by palpation and their location with regards to specific mammary glands. Other parameters evaluated were the rate of tumor growth, tumor ulceration, and tumor regression or ulcer healing and tumor necrosis in response to the hormonal treatment.
All treatments were initiated when the animals were 45 days old. For Regimen 1 fifty rats received a daily intraperitoneal (ip) injection of 0.5 ml placebo for 21 days. Under Regimens 2 and 3 the same number of animals received for 21 days 100 IU/day of r-hCG or u-hCG (Steris Laboratories, Phoenix, Ariz.) respectively. Twenty-one days after completion of the last injection, when the animals were 87 days old, the three groups of animals were inoculated with a single intragastric (ig) dose of 8 mg DMBA (Sigma Chemical Co., St. Louis, Mo.) per 100 g body weight (bw). Thereafter all the animals were palpated periodically for detection of tumor development and determination of tumor growth rate. Final tumorigenic response was evaluated 15 weeks after administration of DMBA.
as §3, §4, §5, §6, §7

Kaposi's sarcoma = conditions: injected into mice; cited from earlier work
breast cancer cells = conditions: cited from earlier work
neoplastic KS cells = conditions: cited from earlier work
[7] = 100 IU/day ip 40 days starting 60 days after DMBA, Regimens 7, 8
[8] = 100 IU/day ip 21 days before DMBA, Regimens 2, 3

hCG: human chorionic gonadotropin, source (urinary or recombinant) not stated at the place
effect on cell growth at 10 IU/ml, hCG used alone (CG-5 cells; 10 IU/ml hCG alone): practically ineffective | effect on cell growth at 10 IU/ml combined with the anti-estrogen (CG-5 cells; 10 IU/ml hCG with Tamoxifen): efficacious | dose at which the inhibitory effect significantly increases (CG-5 cells; hCG alone, six days of treatment): 1000 IU/ml | concentration from which inhibition of cell proliferation is evident (CG-5 cells; hCG alone, three days of exposure): ≥ 100 IU/ml | inhibition of cell proliferation with respect to control (CG-5 cells; pretreated 1 week with highest concentration of hCG, third day after TAM): approximately 50% | inhibition of cell proliferation with respect to control (CG-5 cells; pretreated 1 week with lowest concentration of hCG, sixth day after TAM): about 65% | proliferation of normal and neoplastic human breast epithelial cells [1]: inhibits the proliferation | patients with positive effect on the course of the illness (metastatic breast cancer): more than 50% | tumor development, treatment after exposure to carcinogens ([2]; hCG treatment of rats after carcinogen): protected them from tumor development

u-hCG: urinary human chorionic gonadotropin, obtained from the urine of pregnant women (Steris Laboratories)
No. An. With Tumors ([3]; 20 weeks post-DMBA): 30/46 and 30 | No. Tumors/Animal [3]: 1.9 | Percentage (animals with tumors) [3]: 65.2 | Total No. Tumors [3]: 88 | incidence of breast cancer (breast cancer): reduced incidence of breast cancer | effect on neoplastic cell lines from various organs or systems [4]: inhibitory effect | No. Tumors/Animal (total animals at risk) [5, 7]: 3.4 | Percentage (animals with tumors) [5, 7]: 88.8 | Total No. Tumors [5, 7]: 122 | reduction of tumor burden ([5]; treatment initiated 60 days after DMBA, vs placebo): 40% | No. Tumors/Animal [6, 8]: 0.14 | Percentage (animals with tumors) [6, 8]: 12.0 | Total No. Tumors [6, 8]: 7 | No. An. With Tumors ([6]; 100 IU/day ip 21 days from age 45 days, DMBA 21 days after last injection, 15 weeks post-DMBA): 6/50 and 6 | effect in mice having established, metastatic Kaposi's sarcoma (Kaposi's sarcoma): anti-proliferative effect | chemically-induced mammary tumorigenesis ([2]; preventive agent): inhibits chemically-induced mammary tumorigenesis | incidence of carcinoma-induced mammary tumors ([2]; rats pre-treated with daily doses for several weeks before tumor induction): reduced | cell death of breast cancer cells in vitro (breast cancer cells): induction of cell death | effect in the in vivo animal model or in vitro assay on KS cells (neoplastic KS cells): Neither purified urinary nor purified recombinant hCG, subunits or fractions of hCG had any effect
